Measurements published in article PMC12616683, “In Vivo Atlas of Neuroprotective Cyclic Dipeptides Derived from Food Gelatin Using Peptidomics and Feature-Based Molecular Networking” (Journal of Agricultural and Food Chemistry, 2025).

Experiment: FBMN analysis of short peptides in small intestine contents and serum after oral DHG
Settings: small intestine contents, C57 mice, peptides smaller than 690 Da

CC[C@H](C)[C@H](N)C(=O)N1CCC[C@H]1C(=O)N[C@H](C(=O)O)[C@@H](C)CC [Ile-Pro-Ile]
Peptide signal (feature intensity) in the small intestine, 30 min (30 min after oral DHG): 6.92E+05 | Peptide signal (feature intensity) in the small intestine, 60 min (60 min after oral DHG): 4.73E+05 | Peptide signal (feature intensity) in the small intestine, 120 min (120 min after oral DHG): 1.27E+06 | Peptide signal (feature intensity) in the small intestine, 240 min (240 min after oral DHG): 1.88E+06
